Values of other authors as cited in patent US11185598B2, “Preparation of stabilised x-ray diagnostic composition” (GE HEALTHCARE AS, priority 2010, dated 2021).

Conditions: cited from earlier work

## tris(hydroxymethyl)aminomethane
  pKa: 8.06
